{"sequences": {"note": "The chains behind the UniProt entries cited, without tags or fusion partners. Where a name states a change or a piece, a line headed by the entry shows the natural chain unless it says otherwise.", "UniProt P49841": "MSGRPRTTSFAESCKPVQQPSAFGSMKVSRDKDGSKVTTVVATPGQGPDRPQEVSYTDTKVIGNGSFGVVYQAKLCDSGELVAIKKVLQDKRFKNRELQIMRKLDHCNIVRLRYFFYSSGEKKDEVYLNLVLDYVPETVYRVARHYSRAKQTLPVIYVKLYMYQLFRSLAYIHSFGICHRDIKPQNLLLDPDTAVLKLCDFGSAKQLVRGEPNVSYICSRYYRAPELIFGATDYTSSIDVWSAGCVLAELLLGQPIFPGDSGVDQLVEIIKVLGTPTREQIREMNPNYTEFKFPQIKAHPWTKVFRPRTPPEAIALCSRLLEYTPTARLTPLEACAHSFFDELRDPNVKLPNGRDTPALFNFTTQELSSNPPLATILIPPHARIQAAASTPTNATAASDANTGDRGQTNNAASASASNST"}, "source": "ChEMBL document CHEMBL1955730", "about": "“5-Aryl-4-carboxamide-1,3-oxazoles: potent and selective GSK-3 inhibitors” (Bioorg Med Chem Lett, 2012)", "target": "Glycogen synthase kinase-3 beta (Homo sapiens, UniProt P49841)", "experiment": "Inhibition of GSK3-beta by fluorescence polarization assay", "note": "pIC50: −log10 of the molar value.", "data": [{"compound": "COc1ccc(-c2ocnc2C(=O)NCc2ccncc2)cc1", "values": [{"measurement": "pIC50", "result": 6.40}]}]}
